IC50 data for three molecules are collected here from ChEMBL document CHEMBL1153372, “A selective matrix metalloprotease 12 inhibitor for potential treatment of chronic obstructive pulmonary disease (COPD): discovery of (S)-2-(8-(methoxycarbonylamino)dibenzo[b,d]furan-3-sulfonamido)-3-methylbutanoic acid (MMP408)” (J Med Chem, 2009).

The target in the test is Collagenase 3 (Homo sapiens, UniProt P45452). Description: Inhibition of human recombinant MMP13 expressed in Escherichia coli.
Turning to `CC(C)[C@H](NS(=O)(=O)c1ccc(-c2ccc(NC(=O)c3cc4ccccc4o3)cc2)cc1)C(=O)O`, the IC50 is 1.3 nM.
The result for `CC(C)[C@@H](NS(=O)(=O)c1ccc2oc3cc(NS(C)(=O)=O)ccc3c2c1)C(=O)O` reads 1100 nM.
The result for `CC(C)[C@H](NS(=O)(=O)c1ccc2oc3cc(NS(C)(=O)=O)ccc3c2c1)C(=O)O` reads 25000 nM.

For orientation: IC50 means the concentration at which inhibition is half-maximal.
